Reference: PubChem BioAssay (EPA / NIEHS)
The entries are a selection whose mix differs from that of the whole data set. Inconclusive results are not listed. Calls of active or inactive are those of the source. The calls were made as follows, unless noted: active = hit-call score of the fitted dose curve at least 0.9, where 1 is the maximum; inconclusive = response in the unintended direction; inactive = score below 0.9.

Chains of the proteins cited; added tags and fusions are not shown.
UniProt P10276, whole entry: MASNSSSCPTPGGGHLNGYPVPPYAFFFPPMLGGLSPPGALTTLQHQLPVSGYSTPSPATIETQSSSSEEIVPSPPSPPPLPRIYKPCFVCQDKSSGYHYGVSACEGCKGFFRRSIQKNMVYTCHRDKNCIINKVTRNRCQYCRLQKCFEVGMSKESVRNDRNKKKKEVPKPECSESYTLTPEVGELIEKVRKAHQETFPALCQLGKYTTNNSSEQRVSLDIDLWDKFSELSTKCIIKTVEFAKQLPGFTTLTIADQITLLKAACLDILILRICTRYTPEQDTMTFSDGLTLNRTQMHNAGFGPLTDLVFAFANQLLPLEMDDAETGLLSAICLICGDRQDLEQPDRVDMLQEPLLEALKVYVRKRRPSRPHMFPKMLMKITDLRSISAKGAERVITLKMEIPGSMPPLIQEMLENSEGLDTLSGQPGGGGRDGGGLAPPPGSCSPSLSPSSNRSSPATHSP
UniProt P37231, whole entry: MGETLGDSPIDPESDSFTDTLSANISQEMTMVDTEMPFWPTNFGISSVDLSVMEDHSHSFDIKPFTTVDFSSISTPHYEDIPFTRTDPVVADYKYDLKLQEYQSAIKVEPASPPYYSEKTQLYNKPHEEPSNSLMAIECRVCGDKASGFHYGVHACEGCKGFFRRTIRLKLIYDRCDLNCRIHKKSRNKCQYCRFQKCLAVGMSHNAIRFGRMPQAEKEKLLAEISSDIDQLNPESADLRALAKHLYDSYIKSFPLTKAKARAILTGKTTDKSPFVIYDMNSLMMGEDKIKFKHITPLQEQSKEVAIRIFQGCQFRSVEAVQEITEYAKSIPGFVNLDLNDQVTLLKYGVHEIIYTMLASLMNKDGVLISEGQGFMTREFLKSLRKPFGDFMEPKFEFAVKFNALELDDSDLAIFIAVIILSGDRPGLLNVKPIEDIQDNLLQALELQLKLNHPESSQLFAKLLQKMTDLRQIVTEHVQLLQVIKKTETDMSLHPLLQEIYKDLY
UniProt O75469, whole entry: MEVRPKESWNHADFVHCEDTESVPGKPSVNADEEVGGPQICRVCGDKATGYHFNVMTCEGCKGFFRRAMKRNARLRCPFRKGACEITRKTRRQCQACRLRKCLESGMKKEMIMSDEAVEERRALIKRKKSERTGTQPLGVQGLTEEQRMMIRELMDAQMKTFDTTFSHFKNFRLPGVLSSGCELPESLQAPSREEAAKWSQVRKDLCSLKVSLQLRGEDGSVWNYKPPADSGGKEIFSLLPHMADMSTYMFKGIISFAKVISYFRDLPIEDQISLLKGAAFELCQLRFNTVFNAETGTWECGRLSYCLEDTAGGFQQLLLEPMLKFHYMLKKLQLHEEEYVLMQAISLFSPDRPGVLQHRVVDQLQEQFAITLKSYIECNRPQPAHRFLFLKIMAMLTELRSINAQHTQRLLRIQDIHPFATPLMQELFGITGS
UniProt P13631, whole entry: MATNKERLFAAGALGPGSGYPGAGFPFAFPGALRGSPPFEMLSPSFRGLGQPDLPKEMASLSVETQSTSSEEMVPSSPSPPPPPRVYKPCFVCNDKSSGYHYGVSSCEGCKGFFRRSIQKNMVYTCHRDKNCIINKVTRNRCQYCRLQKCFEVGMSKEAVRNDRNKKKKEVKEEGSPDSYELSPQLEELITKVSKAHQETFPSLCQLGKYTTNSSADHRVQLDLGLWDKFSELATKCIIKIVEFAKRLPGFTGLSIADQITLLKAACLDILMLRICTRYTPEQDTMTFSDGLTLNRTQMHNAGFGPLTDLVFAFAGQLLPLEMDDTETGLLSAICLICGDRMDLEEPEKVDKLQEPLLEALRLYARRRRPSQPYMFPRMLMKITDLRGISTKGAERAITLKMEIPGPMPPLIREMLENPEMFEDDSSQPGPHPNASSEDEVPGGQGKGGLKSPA
UniProt Q92753, whole entry: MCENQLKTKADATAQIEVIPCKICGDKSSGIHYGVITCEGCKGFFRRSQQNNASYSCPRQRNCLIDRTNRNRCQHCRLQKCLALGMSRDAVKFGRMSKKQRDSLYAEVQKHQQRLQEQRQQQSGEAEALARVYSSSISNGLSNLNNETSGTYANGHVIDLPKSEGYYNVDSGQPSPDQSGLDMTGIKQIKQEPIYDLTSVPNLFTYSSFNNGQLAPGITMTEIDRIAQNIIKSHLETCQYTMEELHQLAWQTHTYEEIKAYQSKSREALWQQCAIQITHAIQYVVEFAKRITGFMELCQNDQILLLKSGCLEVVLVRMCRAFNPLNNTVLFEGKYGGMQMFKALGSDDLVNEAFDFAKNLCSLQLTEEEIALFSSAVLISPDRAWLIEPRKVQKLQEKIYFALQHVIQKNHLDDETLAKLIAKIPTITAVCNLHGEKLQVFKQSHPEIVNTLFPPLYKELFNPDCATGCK
UniProt P51449, whole entry: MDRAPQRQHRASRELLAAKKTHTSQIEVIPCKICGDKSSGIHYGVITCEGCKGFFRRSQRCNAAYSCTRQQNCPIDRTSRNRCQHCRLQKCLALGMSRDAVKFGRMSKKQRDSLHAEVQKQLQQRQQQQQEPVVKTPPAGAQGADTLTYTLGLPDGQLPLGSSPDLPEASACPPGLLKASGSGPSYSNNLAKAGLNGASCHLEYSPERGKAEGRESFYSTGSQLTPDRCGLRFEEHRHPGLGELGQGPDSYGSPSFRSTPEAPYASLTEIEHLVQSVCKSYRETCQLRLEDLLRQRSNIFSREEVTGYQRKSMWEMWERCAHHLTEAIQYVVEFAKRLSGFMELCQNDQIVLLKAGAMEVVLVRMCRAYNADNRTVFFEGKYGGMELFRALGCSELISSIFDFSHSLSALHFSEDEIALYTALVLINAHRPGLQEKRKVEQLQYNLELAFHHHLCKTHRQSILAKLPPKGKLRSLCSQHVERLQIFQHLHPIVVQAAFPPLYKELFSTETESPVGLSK
UniProt P28702, whole entry: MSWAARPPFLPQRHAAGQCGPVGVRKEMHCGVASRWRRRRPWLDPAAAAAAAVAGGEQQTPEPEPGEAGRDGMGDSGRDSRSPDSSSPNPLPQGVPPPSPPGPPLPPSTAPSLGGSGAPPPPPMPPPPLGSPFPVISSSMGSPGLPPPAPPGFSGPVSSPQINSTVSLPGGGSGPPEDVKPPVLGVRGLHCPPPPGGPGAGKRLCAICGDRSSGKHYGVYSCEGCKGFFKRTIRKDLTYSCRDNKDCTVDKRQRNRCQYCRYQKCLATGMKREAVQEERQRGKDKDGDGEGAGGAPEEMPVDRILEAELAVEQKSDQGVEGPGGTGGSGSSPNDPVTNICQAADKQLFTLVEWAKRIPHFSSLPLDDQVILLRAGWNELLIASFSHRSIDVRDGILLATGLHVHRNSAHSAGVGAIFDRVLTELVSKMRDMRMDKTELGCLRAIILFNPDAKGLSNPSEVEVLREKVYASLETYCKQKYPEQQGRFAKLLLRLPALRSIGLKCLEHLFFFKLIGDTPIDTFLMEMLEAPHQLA
UniProt P11473, whole entry: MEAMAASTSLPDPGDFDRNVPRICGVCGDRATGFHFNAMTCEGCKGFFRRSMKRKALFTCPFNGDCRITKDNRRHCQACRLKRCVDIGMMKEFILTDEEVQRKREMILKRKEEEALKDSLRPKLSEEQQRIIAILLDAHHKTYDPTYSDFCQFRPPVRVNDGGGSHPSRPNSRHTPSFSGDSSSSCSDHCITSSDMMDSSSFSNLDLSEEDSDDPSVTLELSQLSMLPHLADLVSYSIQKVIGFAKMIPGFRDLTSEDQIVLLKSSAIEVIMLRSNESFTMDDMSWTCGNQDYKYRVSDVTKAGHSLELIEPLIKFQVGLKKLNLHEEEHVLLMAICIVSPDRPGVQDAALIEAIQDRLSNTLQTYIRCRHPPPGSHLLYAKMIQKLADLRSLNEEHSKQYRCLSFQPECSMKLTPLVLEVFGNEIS
UniProt P19793, whole entry: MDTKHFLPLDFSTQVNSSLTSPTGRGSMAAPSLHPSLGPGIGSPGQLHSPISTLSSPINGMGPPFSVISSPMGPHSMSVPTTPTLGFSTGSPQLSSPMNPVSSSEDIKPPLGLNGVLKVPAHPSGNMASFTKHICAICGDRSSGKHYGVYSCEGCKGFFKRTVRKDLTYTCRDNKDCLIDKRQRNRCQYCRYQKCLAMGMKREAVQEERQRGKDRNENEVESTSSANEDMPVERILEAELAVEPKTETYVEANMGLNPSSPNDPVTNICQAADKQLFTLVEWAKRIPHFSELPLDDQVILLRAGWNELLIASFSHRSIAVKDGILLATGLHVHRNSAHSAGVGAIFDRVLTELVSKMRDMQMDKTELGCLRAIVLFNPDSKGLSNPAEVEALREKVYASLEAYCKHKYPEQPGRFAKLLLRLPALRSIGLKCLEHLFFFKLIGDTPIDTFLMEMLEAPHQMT
UniProt P16581, whole entry: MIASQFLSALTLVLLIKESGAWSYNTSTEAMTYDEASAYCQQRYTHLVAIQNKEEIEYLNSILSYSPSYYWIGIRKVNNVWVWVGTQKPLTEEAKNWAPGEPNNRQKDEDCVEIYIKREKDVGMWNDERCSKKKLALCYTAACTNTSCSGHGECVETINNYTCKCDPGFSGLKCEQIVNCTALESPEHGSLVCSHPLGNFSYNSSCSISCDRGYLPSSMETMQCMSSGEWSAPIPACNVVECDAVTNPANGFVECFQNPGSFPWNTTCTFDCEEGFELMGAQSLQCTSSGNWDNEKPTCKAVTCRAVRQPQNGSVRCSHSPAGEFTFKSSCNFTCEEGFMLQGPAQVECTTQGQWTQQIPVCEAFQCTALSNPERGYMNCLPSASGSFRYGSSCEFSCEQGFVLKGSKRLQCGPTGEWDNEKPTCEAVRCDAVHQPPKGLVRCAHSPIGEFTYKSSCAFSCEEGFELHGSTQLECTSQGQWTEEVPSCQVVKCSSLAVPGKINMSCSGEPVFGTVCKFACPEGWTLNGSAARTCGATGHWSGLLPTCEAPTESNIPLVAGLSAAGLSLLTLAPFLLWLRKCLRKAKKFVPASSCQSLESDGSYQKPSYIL
UniProt P10826, whole entry: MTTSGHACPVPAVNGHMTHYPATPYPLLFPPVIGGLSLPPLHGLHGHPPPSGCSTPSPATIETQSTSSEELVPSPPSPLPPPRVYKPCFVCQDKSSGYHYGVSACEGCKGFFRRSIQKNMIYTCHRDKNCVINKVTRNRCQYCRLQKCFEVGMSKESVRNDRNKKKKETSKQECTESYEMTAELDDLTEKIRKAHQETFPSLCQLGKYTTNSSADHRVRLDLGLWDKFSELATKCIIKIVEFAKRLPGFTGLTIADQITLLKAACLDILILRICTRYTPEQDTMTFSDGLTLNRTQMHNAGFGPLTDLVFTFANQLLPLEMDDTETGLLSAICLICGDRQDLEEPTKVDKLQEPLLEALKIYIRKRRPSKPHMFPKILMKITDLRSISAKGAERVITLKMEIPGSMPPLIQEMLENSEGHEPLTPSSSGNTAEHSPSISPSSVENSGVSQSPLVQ
UniProt P10827, whole entry: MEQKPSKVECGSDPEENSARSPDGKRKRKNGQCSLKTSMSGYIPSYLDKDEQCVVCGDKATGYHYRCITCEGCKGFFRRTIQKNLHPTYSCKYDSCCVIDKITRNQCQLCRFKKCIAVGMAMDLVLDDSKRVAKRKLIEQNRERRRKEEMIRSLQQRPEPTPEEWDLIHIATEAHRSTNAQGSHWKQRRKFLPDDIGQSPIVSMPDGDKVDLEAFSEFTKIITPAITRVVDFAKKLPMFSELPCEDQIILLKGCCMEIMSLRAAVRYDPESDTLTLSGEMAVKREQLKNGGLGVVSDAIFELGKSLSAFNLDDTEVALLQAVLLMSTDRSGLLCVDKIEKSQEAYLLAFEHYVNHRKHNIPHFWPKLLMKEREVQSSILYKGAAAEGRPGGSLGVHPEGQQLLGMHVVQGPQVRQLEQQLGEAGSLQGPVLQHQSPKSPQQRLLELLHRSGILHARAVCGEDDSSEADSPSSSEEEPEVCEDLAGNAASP

Assays:
[1] = biological target: Retinoic acid receptor alpha (Homo sapiens) (UniProt P10276); assay: ATG_RARa_TRANS: Attagene TRANS-FACTORIAL HepG2 Assay for human Retinoic Acid Receptor alpha (RARa) (AID 2283005)
Outline: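 HepG2 transiently transfected with multiplex GAL4-UAS reporter units including a human RARa–GAL4 chimera; 24 h compound exposure. Reporter mRNA quantified by RT-PCR, 6-FAM labeling and capillary electrophoresis; gain of signal versus DMSO.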

[2] = biological target: Peroxisome proliferator-activated receptor gamma (Homo sapiens) (UniProt P37231); assay: ATG_PPARg_TRANS: Attagene TRANS-FACTORIAL HepG2 Assay for human Peroxisome Proliferator-activated Receptor-gamma (PPARg) (AID 2283007)
Outline: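 Multiplexed reporter transcription units in HepG2, 24 h dosing, reporter transcripts quantified by fluorescent RT-PCR and capillary electrophoresis. Increase over DMSO scored.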

[3] = biological target: Nuclear receptor subfamily 1 group I member 2 (Homo sapiens) (UniProt O75469); assay: ATG_PXR_TRANS: Attagene TRANS-FACTORIAL HepG2 Assay for human Pregnane X Receptor (PXR) (AID 2283008)
Outline: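 Read-out is fluorescence of labelled reporter cDNA fragments separated by capillary electrophoresis after RT-PCR and HpaI digestion. Source: HepG2 cells carrying PXR-GAL4/UAS reporter constructs, treated 24 h; activity fitted upward relative to DMSO.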

[4] = biological target: human Retinoic Acid Receptor gamma (RARg), RARG (gene 5916) (UniProt P13631); assay: ATG_RARg_TRANS: Attagene TRANS-FACTORIAL HepG2 Assay for human Retinoic Acid Receptor gamma (RARg) (AID 2283009)
Outline: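 Transient transfection of HepG2 with multi-reporter constructs, then 24 h chemical treatment. Total RNA isolated, reverse-transcribed, PCR-amplified, fluorescently labelled and resolved by capillary electrophoresis; activity scored as mRNA induction versus DMSO.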

[5] = biological target: human RAR-related Orphan Receptor beta (RORb), RORB (gene 6096) (UniProt Q92753); assay: ATG_RORb_TRANS: Attagene TRANS-FACTORIAL HepG2 Assay for human RAR-related Orphan Receptor beta (RORb) (AID 2283010)
Outline: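 Readout is reporter-gene mRNA induction, detected as fluorescence after RT-PCR and capillary electrophoresis, fitted for gain of signal against DMSO controls. Transiently transfected HepG2 liver cells carrying GAL4-UAS reporter constructs were treated for 24 hours.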

[6] = biological target: human RAR-related Orphan Receptor gamma (RORg), RORC (gene 6097) (UniProt P51449); assay: ATG_RORg_TRANS: Attagene TRANS-FACTORIAL HepG2 Assay for human RAR-related Orphan Receptor gamma (RORg) (AID 2283011)
Outline: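 HepG2 cells transiently transfected with GAL4-UAS reporter units and chimeric RORg-Gal4 construct; after 24 h chemical exposure, reporter mRNA measured by RT-PCR with fluorescent capillary electrophoresis, gain of signal fitted against DMSO.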

[7] = biological target: human Retinoid X Receptor beta (RXRb), RXRB (gene 6257) (UniProt P28702); assay: ATG_RXRb_TRANS: Attagene TRANS-FACTORIAL HepG2 Assay for human Retinoid X Receptor beta (RXRb) (AID 2283013)
Outline: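 Transfect HepG2 with GAL4-UAS multi-reporter constructs (chimeric NR-Gal4, TRANS format); dose compound 24 h; isolate RNA, RT-PCR, FAM primer extension, HpaI digest; quantify by capillary electrophoresis; positive direction vs DMSO.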

[8] = biological target: human Vitamin D Receptor (VDR), VDR (gene 7421) (UniProt P11473); assay: ATG_VDR_TRANS: Attagene TRANS-FACTORIAL HepG2 Assay for human Vitamin D Receptor (VDR) (AID 2283022)
Outline: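 HepG2 cells were transiently transfected with GAL4-UAS reporter units and a chimeric VDR-Gal4 construct, then dosed for 24 hours. Reporter mRNA was quantified by RT-PCR, fluorescent labeling, HpaI digestion and capillary electrophoresis; gain of signal analysed vs DMSO.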

[9] = read-out: Intercellular Adhesion Molecule 1 (ICAM1), ICAM1 (gene 3383); assay: BSK_3C_ICAM1: BioMAP Diversity Plus: 3C Assay for Intercellular Adhesion Molecule 1 (ICAM1) Biomarker Activity (AID 2283003; active = hit-call score of the fitted dose curve at least 0.9, where 1 is the maximum; inactive = score below 0.9); conditions: actives raise or lower the signal; primary human endothelial cells (HUVEC)
Outline: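 ICAM-1 levels measured by ELISA after HUVEC cultures in the 3C system had been dosed for 24 h. Gain or loss of signal relative to DMSO was fitted in both directions.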

[10] = BSK_3C_Proliferation: Cell Proliferation Assessment in the BioMAP Diversity Plus: 3C Assay (AID 2283006; active = hit-call score of the fitted dose curve at least 0.9, where 1 is the maximum; inactive = score below 0.9); conditions: primary human endothelial cells (HUVEC)
Outline: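 Read-out is total protein by SRB absorbance at 560 nm, taken as a proxy for relative cell number. Primary human umbilical vein endothelium cultured below confluence was dosed for 48 h, TCA-fixed and SRB-stained; curves were fitted bidirectionally versus DMSO.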

[11] = biological target: Retinoic acid receptor RXR-alpha (Homo sapiens) (UniProt P19793); assay: ATG_RXRa_TRANS: Attagene TRANS-FACTORIAL HepG2 Assay for human Retinoid X Receptor alpha (RXRa) (AID 2283012)
Outline: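 Transient transfection of human HepG2 with multiple GAL4-UAS reporter constructs; 24 h compound exposure; total RNA isolated, reverse-transcribed, PCR-amplified, 6-FAM labelled, HpaI-cut, resolved by capillary electrophoresis. Positive-direction fit versus DMSO.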

[12] = read-out: E-selectin (Homo sapiens) (UniProt P16581); assay: BSK_3C_Eselectin: BioMAP Diversity Plus: 3C Assay for Eselectin Biomarker Activity (AID 2283015; active = hit-call score of the fitted dose curve at least 0.9, where 1 is the maximum; inactive = score below 0.9); conditions: actives raise or lower the signal; primary human endothelial cells (HUVEC)
Outline: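 Primary human umbilical vein endothelial cells (3C system), read 24 h after compound addition; E-selectin measured by ELISA. Bidirectional curve fitting against DMSO baseline; cytotoxicity by parallel SRB total-protein staining.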

[13] = read-out: Interleukin-1 alpha (IL1a), IL1A (gene 3552); assay: BSK_BE3C_IL1a: BioMAP Diversity Plus: BE3C Assay for Interleukin-1 alpha (IL1a) Biomarker Activity (AID 2283016; active = hit-call score of the fitted dose curve at least 0.9, where 1 is the maximum; inactive = score below 0.9); conditions: actives raise or lower the signal; primary human bronchial epithelial cells
Outline: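 BE3C primary human bronchial epithelium; cpd 24 h; IL-1a by ELISA; bidirectional fit vs DMSO; parallel SRB (0.1% SRB, 10% TCA fix, 560 nm) for cytotoxicity.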

[14] = read-out: Monocyte Chemoattractant Protein-1 (MCP1), CCL2 (gene 6347); assay: BSK_3C_MCP1: BioMAP Diversity Plus: 3C Assay for Monocyte Chemoattractant Protein-1 (MCP1) Biomarker Activity (AID 2283017; active = hit-call score of the fitted dose curve at least 0.9, where 1 is the maximum; inactive = score below 0.9); conditions: actives raise or lower the signal; primary human endothelial cells (HUVEC)
Outline: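 Human umbilical vein endothelial cells (3C system) exposed to chemicals for 24 h; MCP-1 quantified by ELISA against the DMSO baseline with bidirectional fitting, and parallel SRB staining used to assess cytotoxicity.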

[15] = read-out: Monocyte Chemoattractant Protein-1 (MCP1), CCL2 (gene 6347); assay: BSK_4H_MCP1: BioMAP Diversity Plus: 4H Assay for Monocyte Chemoattractant Protein-1 (MCP1) Biomarker Activity (AID 2283018; active = hit-call score of the fitted dose curve at least 0.9, where 1 is the maximum; inactive = score below 0.9); conditions: actives raise or lower the signal; primary human endothelial cells (HUVEC)
Outline: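 ELISA read-out of MCP-1 from human vascular endothelial primary cells taken at 24 hours after compound exposure. Activity was fitted in both directions relative to DMSO, which served as negative control.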

[16] = read-out: Human Leukocyte Antigen - DR isotype (HLADR), HLA-DRA (gene 3122); assay: BSK_3C_HLADR: BioMAP Diversity Plus: 3C Assay for Human Leukocyte Antigen - DR isotype (HLADR) Biomarker Activity (AID 2283019; active = hit-call score of the fitted dose curve at least 0.9, where 1 is the maximum; inactive = score below 0.9); conditions: actives raise or lower the signal; primary human endothelial cells (HUVEC)
Outline: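 HUVEC monoculture, HLA-DR measured by ELISA 24 h after chemical dosing. Fitted bidirectionally against DMSO baseline; parallel SRB staining assessed cytotoxicity, with 3C proliferation read by SRB at 48 h.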

[17] = read-out: Interleukin-8 (IL8), CXCL8 (gene 3576); assay: BSK_3C_IL8: BioMAP Diversity Plus: 3C Assay for Interleukin-8 (IL8) Biomarker Activity (AID 2283020; active = hit-call score of the fitted dose curve at least 0.9, where 1 is the maximum; inactive = score below 0.9); conditions: actives raise or lower the signal; primary human endothelial cells (HUVEC)
Outline: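 ELISA read-out of IL-8 from human umbilical vein endothelium, measured 24 h after chemical dosing. Activity is expressed relative to DMSO negative control, with both increases and decreases fitted.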

[18] = read-out: Monokine induced gamma interferon (MIG), CXCL9 (gene 4283); assay: BSK_3C_MIG: BioMAP Diversity Plus: 3C Assay for Monokine induced gamma interferon (MIG) Biomarker Activity (AID 2283021; active = hit-call score of the fitted dose curve at least 0.9, where 1 is the maximum; inactive = score below 0.9); conditions: actives raise or lower the signal; primary human endothelial cells (HUVEC)
Outline: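 Read-out is ELISA detection of MIG on human umbilical vein endothelial cells, taken 24 h after dosing. Gain or loss of signal was scored relative to DMSO controls using bidirectional curve fitting.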

[19] = biological target: human Retinoic Acid Receptor beta (RARb), RARB (gene 5915) (UniProt P10826); assay: ATG_RARb_TRANS: Attagene TRANS-FACTORIAL HepG2 Assay for human Retinoic Acid Receptor beta (AID 2283004)
Outline: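 HepG2 cells were transiently transfected with GAL4-UAS reporter units that report activity of exogenous chimeric NR-Gal4 proteins, then exposed to compound for 24 h. Reporter mRNA was quantified by RT-PCR with capillary electrophoresis fluorescence, as gain of signal over DMSO.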

[20] = biological target: human Thyroid Receptor alpha (THRa1), THRA (gene 7067) (UniProt P10827); assay: ATG_THRa1_TRANS: Attagene TRANS-FACTORIAL HepG2 Assay for human Thyroid Receptor alpha (THRa1) (AID 2283014)
Outline: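 HepG2 cells transiently transfected with chimeric NR-Gal4 and GAL4-UAS reporter units, dosed 24 h. Reporter mRNA quantified by RT-PCR, fluorescent labeling, HpaI digestion and capillary electrophoresis; gain-of-signal fit versus DMSO.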

Measured: AC50

COP(C)(=O)OC
inactive: [1] | [2] | [3] | [4] | [5] | [6] | [7] | [8]

Cc1ccc([N+](=O)[O-])c([N+](=O)[O-])c1
active: [2] 1.04 µM | [12] 8.47 µM | [16] 20 µM
not listed: [1] | [4] | [6] | [8] | [19] | [20]
inactive: all other assays above

Cc1c([N+](=O)[O-])cccc1[N+](=O)[O-]
not listed: [1] | [5] | [6] | [7] | [8] | [11] | [20]
inactive: all other assays above

COc1ccc([N+](=O)[O-])cc1[N+](=O)[O-]
inactive: [3] | [11] | [7] | [8]

Cc1cccc([N+](=O)[O-])c1[N+](=O)[O-]
active: [2] 3.74 µM
not listed: [1] | [4] | [6] | [16] | [19]
inactive: all other assays above

O=[N+]([O-])OCC(CO[N+](=O)[O-])(CO[N+](=O)[O-])CO[N+](=O)[O-]
inactive: [5] | [11] | [7] | [8]

Cc1ccc([N+](=O)[O-])cc1[N+](=O)[O-]
not listed: [1] | [4] | [5] | [6] | [7] | [19]
inactive: all other assays above

O=[N+]([O-])c1cccc([N+](=O)[O-])c1
not listed: [1] | [2] | [4] | [5] | [6] | [7] | [11] | [19]
inactive: all other assays above

N#CBr
inactive: [2] | [3] | [4] | [11] | [20] | [8]

CN(C)CCCl
inactive: [2] | [6] | [11] | [20] | [8]

CC(C)N(CCO)C(C)C
inactive: [2] | [3] | [6] | [7]

CC(C)OP(C)(=O)OC(C)C
active: [14] 20 µM
inactive: [9] | [10] | [6] | [7] | [12] | [13] | [15] | [16] | [17] | [18]
